# Apparent affinities of Ab-95 variants for a coronavirus HR2 peptide

The target is the same throughout: PDVDLGDISGINAS, from the HR2 region of SARS-CoV-2 spike.

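The starting antibody came from a phage panning campaign against this peptide. In library AAYL52, one, two or three CDR residues were substituted; doubles and triples were drawn at random. The assay is AlphaSeq: two haploid yeast populations carry antibody and antigen on their surface. Binding brings cells together so that they mate, and sequencing counts the barcode pairs among the diploids. A regression on co-assayed BCL2-family reference pairs converts the normalised counts of each replicate to an apparent Kd. The assay was run in three technical replicates.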

Each scFv is VH, a (GGGGS)3 linker, VL, as in the parent Ab-95, and differs from it in the CDRs of the light chain only.
VH: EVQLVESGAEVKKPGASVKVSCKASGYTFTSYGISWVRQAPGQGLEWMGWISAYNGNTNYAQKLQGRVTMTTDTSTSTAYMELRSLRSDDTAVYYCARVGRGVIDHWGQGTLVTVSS
VL: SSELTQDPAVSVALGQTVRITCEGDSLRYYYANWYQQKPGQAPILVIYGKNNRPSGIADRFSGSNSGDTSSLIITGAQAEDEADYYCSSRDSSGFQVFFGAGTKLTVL

Substitutions are numbered in sequence along the VL above, starting at 1 (not Kabat).
The read-out is the apparent dissociation constant on a log10 scale (nM): the lower, the stronger.
An entry "ND" has no value in the source: the pair was not observed among the diploids in that replicate. This suggests poor binding but is not conclusive.
In this assay the parent's reference entry averaged 2.31; its copy inside this library read 2.25.
Background: pairings of library AAYL52 with three empty control strains gave a value in 28% of cases (median 3.91, 5th percentile 2.90). Values in that range, when seen in few replicates, are hard to tell from nonspecific mating. Also given: how often the same scFv was detected with the empty control strains, with their mean in brackets.

changes	log10 Kd (nM) by replicate	empty controls
G49H N52I S55Y	3.58 / 3.78 / 3.71	6/9 (4.12)
Y31Q N52F S89W	2.62 / 2.69 / 2.93	2/9 (3.34)
N52Q R53I G94R	2.68 / 2.61 / 2.72	8/9 (3.84)
S26H G49H S55F	ND / 4.07 / ND	3/9 (3.38)
G24S Y30T F95Q	2.21 / 2.28 / 1.95	6/9 (4.28)
Y31E R90I V97Y	2.18 / 1.94 / 1.70	4/9 (3.91)
E23L Y31D Q96N	1.33 / 1.21 / 0.93	1/9 (3.84)
S88G D91H	2.62 / 2.11 / 2.85	5/9 (4.08)
E23H K50S F98V	ND / 4.48 / ND	2/9 (3.49)
D25K S55G F98T	ND / 3.17 / ND	0/9
D25C S92T S93K	4.52 / ND / ND	4/9 (3.67)
Y30D G49F R53D	4.28 / ND / ND	2/9 (4.37)
S26F L27P P54C	3.46 / 4.34 / 2.75	3/9 (3.65)
G24F N51Y S89P	ND / ND / 3.71	4/9 (3.83)
G49S N52G D91A	3.52 / 3.21 / 3.51	6/9 (3.73)
E23I Y29R A32L	ND / ND / ND	3/9 (3.72)
A32I N52F V97R	ND / 3.54 / ND	4/9 (3.67)
N33W N51I	3.83 / 3.79 / 3.04	5/9 (3.80)
L27Y K50P F98Q	1.58 / 2.06 / 1.10	0/9
D25K Y29Q R90D	3.87 / ND / 4.37	2/9 (4.27)
L27Q K50E V97F	3.93 / 3.92 / ND	3/9 (3.96)
N52Q R53S V97F	5.26 / 3.83 / 3.58	2/9 (4.22)
N33I F95T F98I	ND / ND / 3.86	4/9 (3.43)
E23M G24I N33G	4.64 / 5.60 / 3.10	5/9 (4.04)
Y30T R53S F95N	2.40 / 2.64 / 2.71	2/9 (4.54)
E23W N33H S92W	ND / 3.40 / ND	3/9 (3.48)
K50W S89E R90W	ND / 4.95 / ND	2/9 (3.46)
R90W S93Q F98S	ND / ND / ND	1/9 (3.43)
K50L S88N S93A	ND / ND / ND	4/9 (3.63)
P54K S88G F98P	ND / 3.98 / ND	5/9 (4.08)
Y31P S89C F95N	1.77 / 1.70 / 0.98	2/9 (4.55)
Y31K K50N S92C	2.18 / 1.99 / 1.66	4/9 (3.31)
L27I N51L N52A	ND / ND / ND	2/9 (4.01)
Y29E S92C F98G	2.78 / 3.05 / 2.98	4/9 (4.07)
S55T S89N S92D	ND / 3.92 / ND	2/9 (3.33)
S88F R90H V97E	ND / 4.06 / 4.13	1/9 (4.39)
N33L G49R S93N	ND / ND / ND	2/9 (3.64)
D25V R28N G49Y	ND / ND / ND	1/9 (3.52)
G24T L27Y N51S	ND / 3.81 / ND	1/9 (3.81)
N52A P54V S93M	3.46 / 3.65 / 2.65	4/9 (3.76)
G49R F95P Q96L	ND / 4.07 / ND	6/9 (4.38)
E23L S88I	2.87 / ND / 3.32	2/9 (3.87)
D25Y Y29T Y31G	1.51 / 1.45 / 1.04	1/9 (5.25)
P54D R90F S93H	5.73 / 5.25 / 4.16	3/9 (4.79)
Y31A G49W N51Q	ND / ND / ND	0/9
S26K K50Y D91E	3.86 / 4.18 / 4.28	5/9 (4.22)
D25F N52D V97H	4.05 / 3.95 / 2.40	2/9 (5.31)
S26W N51S S89H	4.60 / ND / 3.03	4/9 (3.87)

Extract of 4 entries:

changes	log10 Kd (nM) by replicate	empty controls
R90W S93Q F98S	ND / ND / ND	1/9 (3.43)
G24T L27Y N51S	ND / 3.81 / ND	1/9 (3.81)
Y30T R53S F95N	2.40 / 2.64 / 2.71	2/9 (4.54)
E23W N33H S92W	ND / 3.40 / ND	3/9 (3.48)

Data: MIT Lincoln Laboratory AlphaSeq set, Engelhart et al. 2022, doi:10.1038/s41597-022-01779-4, as distributed in FLAb.